Earlier results, collected in PubChem BioAssay AID1811 (Shanghai Institute of Organic Chemistry, 2009).
The list shows a part of the results. Activity calls are given as the source filed them. Unless stated, no cut-off for active and inactive is given here.

Tested on: 1ZXV A
Assay: PubChem AID 1811
Conditions: PDB complex binding affinities from literature

Q: Which outcome does the source give for `O=C(O)CCN1C(=O)/C(=C\c2ccc(-c3ccc(Cl)cc3)o2)SC1=S` here?
A: active
